Biological target: human TYK2 (JH2domain-pseudokinase) (Homo sapiens (Human), UniProt P29597)
Assay: TYK2 JH2 Domain Binding Assay (KINOMEscan)

Amino acid sequences for entries named in this document (tags omitted). Residues count along the entry.
UniProt P29597, 556-888: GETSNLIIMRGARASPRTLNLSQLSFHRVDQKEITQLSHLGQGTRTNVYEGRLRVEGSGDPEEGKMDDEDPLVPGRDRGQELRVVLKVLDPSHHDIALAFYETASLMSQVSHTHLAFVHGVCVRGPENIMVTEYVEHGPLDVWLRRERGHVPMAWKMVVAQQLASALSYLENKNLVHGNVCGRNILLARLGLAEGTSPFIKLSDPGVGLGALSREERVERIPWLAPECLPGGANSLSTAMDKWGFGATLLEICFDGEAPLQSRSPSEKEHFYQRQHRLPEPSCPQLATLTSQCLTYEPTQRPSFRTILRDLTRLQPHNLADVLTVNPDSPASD

CNc1cc(Nc2cccn(C3CC(F)(F)C3)c2=O)nc2c(C(=O)N[C@@H]3CCC[C@@H](O)C3)cnn12 [I-1209]
Kd: < 0.2 nM
